{
  "sequences": {"note": "By UniProt entry, the sequences of proteins in these tests, tags left out. Where a name states a change or a piece, a line headed by the entry shows the natural chain unless it says otherwise.", "UniProt P41145": "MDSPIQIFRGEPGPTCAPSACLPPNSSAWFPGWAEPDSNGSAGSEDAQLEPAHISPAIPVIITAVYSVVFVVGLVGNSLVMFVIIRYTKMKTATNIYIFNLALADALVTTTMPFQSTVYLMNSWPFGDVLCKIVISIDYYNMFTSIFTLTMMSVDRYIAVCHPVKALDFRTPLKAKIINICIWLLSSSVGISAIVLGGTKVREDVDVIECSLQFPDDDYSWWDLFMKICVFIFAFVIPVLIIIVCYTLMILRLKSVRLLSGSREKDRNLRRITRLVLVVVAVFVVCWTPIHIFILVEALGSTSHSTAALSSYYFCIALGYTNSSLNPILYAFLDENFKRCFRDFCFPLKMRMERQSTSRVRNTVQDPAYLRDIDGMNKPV"},
  "source": "PubChem BioAssay AID1778",
  "about": "(Sanford-Burnham Center for Chemical Genomics, 2009)",
  "note": "Some of the results follow. Measured potencies and affinities stand elsewhere. Activity calls are given as the source filed them. Rule as the data show it: active = inhibition above about 50%; inactive = the rest.",
  "data": [
    {"target": "Kappa-type opioid receptor (Homo sapiens) (UniProt P41145)", "assay": "kappa opioid receptor blockers – cell-based, luminescence, uHTS (AID 1778)", "conditions": "KOR beta-arrestin recruitment, antagonist mode, at 10 µM, stronger effect = higher value", "values": [
      {"smiles": "COCCN(C(=O)Cn1c(C(F)(F)F)nc2ccccc21)c1c(N)n(Cc2ccccc2)c(=O)[nH]c1=O", "inhibition": "inactive: 22.2%"},
      {"smiles": "Brc1ccc(/C=N/c2nc3ccccc3n2CCN2CCOCC2)cc1", "inhibition": "inactive: 15.4%"},
      {"smiles": "c1coc(CNc2nc3ccccc3n2CCN2CCOCC2)c1", "inhibition": "inactive: -53.2%"},
      {"smiles": "Cc1cccc(Cn2c(=O)c3c(nc4n3CCN4Cc3ccco3)n(C)c2=O)c1", "inhibition": "inactive: -24.4%"},
      {"smiles": "Cc1nn(-c2ccccc2)c2c1P(=O)(N1CCOCC1)N(C)C(c1ccccc1)=N2", "note": "(stereo not drawn)", "inhibition": "inactive: -20.9%"},
      {"smiles": "CCN(CC)c1ccc(NC(=O)Cn2c(C(C)NC(=O)c3ccccc3)nc3ccccc32)cc1", "note": "(stereo not drawn)", "inhibition": "inactive: 17%"},
      {"smiles": "Cc1ccc(C(=O)OC2CN3CCC2CC3)cc1", "note": "(stereo not drawn)", "inhibition": "inactive: 17.1%"},
      {"smiles": "CC1CCC(C(C)C)C(OP(=O)(Nc2ccccn2)c2ccccc2)C1", "note": "(stereo not drawn)", "inhibition": "inactive: 24.9%"},
      {"smiles": "CCN(CC)C(=O)Cn1c(=O)n(C)c2ccccc21", "inhibition": "inactive: -25.1%"},
      {"smiles": "CC(C)(C)NC(=O)Cn1c(SCC(=O)NCc2cccs2)nc2ccccc21", "inhibition": "inactive: 11.7%"},
      {"smiles": "O=C(Cn1c(SCC(=O)N2CCc3ccccc32)nc2ccccc21)NC1CCCC1", "inhibition": "inactive: -0.6%"},
      {"smiles": "COc1cc2c(cc1NC(=O)Cn1cnc3c1c(=O)n(C)c(=O)n3C)oc1ccccc12", "inhibition": "inactive: 9.3%"},
      {"smiles": "O=C(Cn1cnc2ccccc21)Nc1cc(C(F)(F)F)ccc1N1CCOCC1", "inhibition": "inactive: 18.1%"},
      {"smiles": "O=C(Cn1c(C(F)(F)F)nc2ccccc21)NCCN1CCCC1", "inhibition": "inactive: -11.7%"},
      {"smiles": "Cc1cccc(C)c1NC(=O)N1CCC(n2c(=O)[nH]c3ccccc32)CC1", "inhibition": "inactive: -29.4%"},
      {"smiles": "CCn1cc(Cl)c(C(=O)Nc2nc3ccccc3n2CCN2CCCCC2)n1", "inhibition": "inactive: 8.3%"},
      {"smiles": "CCCC(=O)Nc1ccc(C(=O)/C=C/c2ccc(SC)cc2)cc1", "inhibition": "inactive: 3.4%"},
      {"smiles": "COc1ccc(Cl)cc1NC(=O)Cn1c(NCCO)nc2ccccc21", "inhibition": "inactive: 6.4%"},
      {"smiles": "CCN1C(=O)CC(N2CCC(Nc3ccc(OC)cc3)CC2)C1=O", "note": "(stereo not drawn)", "inhibition": "inactive: 28.5%"},
      {"smiles": "Cn1c(=O)c2ncn(CC(=O)NCCOc3ccc(C(C)(C)C)cc3)c2n(C)c1=O", "inhibition": "inactive: 40.8%"},
      {"smiles": "O=C(CSc1nc2ccccc2n1CC(=O)NCc1ccccc1)NCc1ccco1", "inhibition": "inactive: -14.8%"},
      {"smiles": "CC(=O)Nc1ccc(NC(=O)C2CC(=O)Nc3nc4ccccc4n32)cc1", "note": "(stereo not drawn)", "inhibition": "inactive: 17.9%"},
      {"smiles": "O=C(/C=C/c1ccccc1)OC1CN2CCC1CC2", "note": "(stereo not drawn)", "inhibition": "inactive: 10%"},
      {"smiles": "COc1cccc(NC(=O)Cn2c(SCC(=O)N3CCOCC3)nc3ccccc32)c1", "inhibition": "inactive: -32.2%"},
      {"smiles": "COc1ccc(Cc2nc3ccccc3n2CC(=O)N/N=C/c2ccc(C)cc2O)cc1OC", "inhibition": "inactive: -19.9%"},
      {"smiles": "CCN(c1ccccc1)S(=O)(=O)c1ccc(OC)c(NC(=O)Cn2cnc3c2c(=O)n(C)c(=O)n3C)c1", "inhibition": "inactive: 3.6%"},
      {"smiles": "O=S(=O)(c1ccc(Br)cc1)N1CCn2c(nc3ccccc32)C1", "inhibition": "inactive: -53.7%"},
      {"smiles": "O=S(=O)(c1ccc(Cl)c(Cl)c1)N1CCc2nc3ccccc3n2CC1", "inhibition": "inactive: -23.6%"},
      {"smiles": "Cn1c(=O)c2c(ncn2CC(=O)N/N=C/C=C/c2ccccc2)n(C)c1=O", "inhibition": "inactive: -14.3%"},
      {"smiles": "CC1CC(C)CN(Cc2nc3c(c(=O)n(C)c(=O)n3C)n2CCN2CCOCC2)C1", "note": "(stereo not drawn)", "inhibition": "inactive: -9.9%"},
      {"smiles": "O=S(=O)(Nc1ccc2c(c1)nc1n2CCN(Cc2ccccc2)C1)c1ccccc1", "inhibition": "inactive: -16.8%"},
      {"smiles": "N=c1n(CCN2CCOCC2)c2ccccc2n1Cc1ccccc1Br", "inhibition": "inactive: -0.3%"},
      {"smiles": "CCc1ccccc1NC(=O)CSc1nc2ccccc2n1CC(=O)N(C)C", "inhibition": "inactive: -8.7%"},
      {"smiles": "O=S(=O)(Nc1ccc2c(c1)nc1n2CCN(Cc2ccccc2)C1)c1ccc(Cl)cc1", "inhibition": "inactive: 2.4%"},
      {"smiles": "O=C(Cn1cnc2ccccc21)N/N=C/c1cccs1", "inhibition": "inactive: 17.2%"},
      {"smiles": "CN(C)CCn1cnc2c1c(=O)[nH]c(=O)n2Cc1ccccc1", "inhibition": "inactive: -32.1%"},
      {"smiles": "O=C1CC(N2CCC(n3c(=O)[nH]c4ccccc43)CC2)C(=O)N1c1ccc(F)cc1", "note": "(stereo not drawn)", "inhibition": "inactive: 2%"},
      {"smiles": "CC(c1ccccc1)N1CCn2c(nc3cc(NC(=O)c4cccs4)ccc32)C1", "note": "(stereo not drawn)", "inhibition": "inactive: -4.1%"},
      {"smiles": "CC(C)N(C(=O)Cn1c(SCC(=O)NCc2ccc3c(c2)OCO3)nc2ccccc21)C(C)C", "inhibition": "inactive: 1.1%"},
      {"smiles": "O=P1(Nc2ncccn2)COc2ccccc2OC1", "inhibition": "inactive: -87.6%"},
      {"smiles": "Cn1c(=O)[nH]c(=O)c2c1nc(N1CCOCC1)n2CCN1CCOCC1", "inhibition": "inactive: 15.1%"},
      {"smiles": "CCN(CC)C(=O)N1CCn2c(nc3ccccc32)C1", "inhibition": "inactive: -10%"},
      {"smiles": "Cc1ccc2c(c1)C1CN(C)CCC1N2C(=O)c1ccc(Br)o1", "note": "(stereo not drawn)", "inhibition": "inactive: -33%"},
      {"smiles": "COC(=O)CSc1nc2ccccc2n1CC(=O)N(C(C)C)C(C)C", "inhibition": "inactive: 2.1%"},
      {"smiles": "Nc1cccc([As](=O)(O)c2ccccc2)c1", "inhibition": "inactive: 32.5%"},
      {"smiles": "CCOCN(C(=O)Cn1c(COC)nc2ccccc21)c1c(C)cccc1CC", "inhibition": "inactive: 20%"},
      {"smiles": "Cn1c(=O)c2c(ncn2CC(=O)Nc2ccc(Cl)cc2Cl)n(C)c1=O", "inhibition": "inactive: -6.2%"},
      {"smiles": "COc1ccccc1N1CCN(C(=O)Cn2cnc3c2c(=O)n(C)c(=O)n3C)CC1", "inhibition": "inactive: -15.5%"},
      {"smiles": "Cn1c(=O)[nH]c(=O)c2c1nc(CN1CCN(c3cccc(Cl)c3)CC1)n2CCN1CCOCC1", "inhibition": "inactive: 13.9%"},
      {"smiles": "Cn1c(=O)c2ncn(CC(=O)NCCOCc3ccccc3Cl)c2n(C)c1=O", "inhibition": "inactive: -29.1%"},
      {"smiles": "O=C(Cn1c(-c2ccccc2Cl)nc2ccccc21)Nc1cccc(Cl)c1", "inhibition": "inactive: 10.4%"},
      {"smiles": "Cn1c(=O)c2c(ncn2CC(=O)Nc2ccccc2Sc2ccccc2)n(C)c1=O", "inhibition": "inactive: -1.3%"},
      {"smiles": "Cc1cc(NC(=O)Cn2cnc3c2c(=O)n(C)c(=O)n3C)n(-c2ccccc2)n1", "inhibition": "inactive: 30.1%"},
      {"smiles": "CC(C)C[C@H](NC(=O)N1CCn2c1nc1ccccc12)C(=O)NCc1ccco1", "inhibition": "inactive: 4.9%"},
      {"smiles": "Cc1ccc2c(c1)C1CN(C)CCC1N2C(=O)c1ccccc1NS(=O)(=O)c1ccc(F)cc1C", "note": "(stereo not drawn)", "inhibition": "inactive: -24.8%"},
      {"smiles": "O=P1(Nc2ccc(Br)cn2)COc2ccccc2OC1", "inhibition": "inactive: -35.4%"},
      {"smiles": "O=[As](O)(c1cccs1)c1cccs1", "inhibition": "inactive: 13.8%"},
      {"smiles": "CCc1ccccc1NC(=O)CSc1nc2ccccc2n1CC(=O)N1CCCC1", "inhibition": "inactive: 10.8%"},
      {"smiles": "Cc1ccc(OCC(=O)OC2CN3CCC2CC3)cc1", "note": "(stereo not drawn)", "inhibition": "inactive: 20%"},
      {"smiles": "Cc1ccc(C(=O)N(C)c2ccc(OCC(=O)N3c4ccc(C)cc4C4CN(C)CCC43)cc2)cc1", "note": "(stereo not drawn)", "inhibition": "inactive: -24%"},
      {"smiles": "CCC(=O)N1CCn2c1nc1ccccc12", "inhibition": "inactive: -14.1%"},
      {"smiles": "Cc1ccc2c(c1)C1CN(C)CCC1N2C(=O)Cn1nnc(-c2ccccc2F)n1", "note": "(stereo not drawn)", "inhibition": "inactive: -2.9%"},
      {"smiles": "Cn1c(CNc2nc3ccccc3n2CCN2CCCCC2)nc2ccccc21", "inhibition": "inactive: 1.2%"}
    ]}
  ]
}
